The experiment concerns the target CYP2D6 (Homo sapiens, UniProt P10635). In words: High throughput CYP2D6 inhibition screen. The following applies: series of CYP2D6 selective inhibitors; CEC vs. compounds Ia and Ib as substrate.

Amino acid sequences for entries named in this document (tags omitted).
UniProt P10635, whole entry: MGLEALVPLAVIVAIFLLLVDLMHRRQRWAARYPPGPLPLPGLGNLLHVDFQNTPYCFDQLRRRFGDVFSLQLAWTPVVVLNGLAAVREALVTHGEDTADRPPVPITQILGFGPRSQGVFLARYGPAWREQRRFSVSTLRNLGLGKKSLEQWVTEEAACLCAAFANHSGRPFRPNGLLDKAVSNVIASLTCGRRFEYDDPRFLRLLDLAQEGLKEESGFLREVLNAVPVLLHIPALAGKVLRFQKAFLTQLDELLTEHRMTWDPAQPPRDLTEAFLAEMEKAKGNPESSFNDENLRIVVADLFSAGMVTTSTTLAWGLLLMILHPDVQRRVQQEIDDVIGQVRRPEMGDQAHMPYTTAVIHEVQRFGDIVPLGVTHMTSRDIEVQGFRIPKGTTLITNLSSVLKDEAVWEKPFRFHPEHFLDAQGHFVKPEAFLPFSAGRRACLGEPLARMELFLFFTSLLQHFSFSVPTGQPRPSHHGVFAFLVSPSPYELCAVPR

This note sets out measurements from US6130342A, “CYP2D fluorescent assay reagents” (Gentest Corporation, priority 1999, dated 2000).

With `CC[N+](C)(CC)CCc1c(C)c2ccc(OC)cc2oc1=O` [Compound Ia, 3-[2-(N,N-diethyl-N-methylammonium)ethyl]-7-methoxy-4-methylcoumarin], the “correlation of inhibitor IC50 values with those using CEC” value is listed as “highly correlated”. As for `CC[N+](C)(CC)CCc1c(C(F)(F)F)c2ccc(OC)cc2oc1=O` [Compound Ib, 3-[2-(N,N-diethyl-N-methylammonium)ethyl]-7-methoxy-4-trifluoromethylcoumarin iodide], the “correlation of inhibitor IC50 values with those using CEC” value is listed as “highly correlated”.
